Assay results from patent US8268821B2, “Methods and compositions” (priority 2003, dated 2012).
Where two headings read alike, the source gives them in different places. Marks after values point to notes of the source that are not given here.

System: male Wistar rats
Conditions: for doses that cause sedation: ip, rotarod test

| Compound | Lowest run time (s) mean (flupirtine 5 mg/kg ip alone, cut-off 2 minutes, saline control 119.2) [s] | Lowest run time (s) mean (flupirtine 10 mg/kg ip alone, saline control 119.2) [s] | Lowest run time (s) mean (flupirtine 20 mg/kg ip alone, p < 0.05 vs saline control 119.2) | doses that cause sedation | Lowest run time (s) mean (morphine 0.4 mg/kg ip alone, saline control 119.2) [s] | Lowest run time (s) mean (morphine 0.8 mg/kg ip alone, saline control 119.2) [s] | Lowest run time (s) mean (morphine 1.6 mg/kg ip alone, saline control 119.2) [s] | Lowest run time (s) mean (morphine 3.2 mg/kg ip alone, saline control 119.2) [s] | Lowest run time (s) mean (morphine 6.4 mg/kg ip alone, p < 0.05 vs saline control 119.2) |
| --- | --- | --- | --- | --- | --- | --- | --- | --- | --- |
| CCOC(=O)Nc1ccc(NCc2ccc(F)cc2)nc1N [flupirtine] | 118.4 | 107.7 | 58.1* s | greater than 10 mg/kg |  |  |  |  |  |
| CN1CC[C@]23c4c5ccc(O)c4O[C@H]2[C@@H](O)C=C[C@H]3[C@H]1C5 [morphine] |  |  |  | greater than 3.2 mg/kg | 120 | 120 | 110.4 | 99.6 | 60* s |
